Values quoted from earlier work, collected in publication PMC7862202 (Clinical Pharmacokinetics, 2020).

Tested on: patients with ALK + NSCLC who are ALK inhibitor naive
Conditions: first interim analysis, blinded independent review committee; cited from earlier work

C[C@@H](Oc1cc(-c2cnn(C3CCNCC3)c2)cnc1N)c1c(Cl)ccc(F)c1Cl [crizotinib]
12-month event-free rate: 43%
